In general, Kd refers to the free concentration of one partner at which half of the binding sites on the other are occupied at equilibrium, for simple one-to-one binding. Low readings indicate higher affinity, high ones lower affinity.

The experiment has as its target Kissorphin-6 (human).

In turn, “Aß 1-42 (peptide; modification not given)” came in with a Kd of 0.62 nM.
In turn, “Aß 1-40 (peptide; modification not given)” came in with a Kd of 0.47 nM.

The record behind these values is patent EP2388012A1 (Roehampton University, priority 2010, dated 2011).
